According to article PMC12715762, “Discovery of VU6052254: A Novel, Potent M1 Positive Allosteric Modulator” (ACS Chemical Neuroscience, 2025):

How the values were obtained:
C57Bl/6 mice = settings: mouse, in vivo; cited from earlier work
mice = settings: mouse, in vivo

## BQCA
C57Bl/6 mice
  Racine scale seizures: 4/5
mice
  SLUDGE effects in modified Irwin battery: significant SLUDGE
